Measurements from PMC11431963 (International Journal of Molecular Sciences, 2024).
Several values for one entry are separate records, joined by “and”; a condition that tells them apart may be missing. Identical values can stand only once. Like-named read-outs stand apart in the source and are kept apart here.

Chains of the proteins cited; added tags and fusions are not shown. Lines headed by an entry give the natural chain unless they say otherwise; changes in a name come on top.
UniProt Q9UNQ0: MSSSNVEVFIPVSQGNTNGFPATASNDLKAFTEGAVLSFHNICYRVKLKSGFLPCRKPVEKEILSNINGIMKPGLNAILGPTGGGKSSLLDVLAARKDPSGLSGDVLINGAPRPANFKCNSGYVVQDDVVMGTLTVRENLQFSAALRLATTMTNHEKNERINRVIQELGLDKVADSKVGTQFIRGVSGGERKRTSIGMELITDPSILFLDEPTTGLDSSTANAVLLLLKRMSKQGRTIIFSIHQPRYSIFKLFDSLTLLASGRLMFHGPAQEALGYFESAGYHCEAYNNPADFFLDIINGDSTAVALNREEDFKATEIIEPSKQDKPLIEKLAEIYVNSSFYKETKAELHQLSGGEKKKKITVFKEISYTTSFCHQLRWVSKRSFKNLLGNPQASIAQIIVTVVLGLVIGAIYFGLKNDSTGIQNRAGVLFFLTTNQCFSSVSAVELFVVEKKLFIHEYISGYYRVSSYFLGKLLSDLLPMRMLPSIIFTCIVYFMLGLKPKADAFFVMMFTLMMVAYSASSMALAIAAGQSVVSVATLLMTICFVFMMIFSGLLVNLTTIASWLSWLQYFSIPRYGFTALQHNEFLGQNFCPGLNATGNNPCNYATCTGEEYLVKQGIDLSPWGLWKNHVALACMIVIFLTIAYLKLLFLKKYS

Tests used:
[1] = target: T1, Abcg2 (BCRP) (Mus musculus, UniProt Q7TMS5); test: Transepithelial transport assay in MDCK-II cells transduced with murine Abcg2; type: in vitro ADME; conditions: read-out: Relative efflux transport ratio (BA/AB) at 4 h
T1 sequence (Q7TMS5 1-657): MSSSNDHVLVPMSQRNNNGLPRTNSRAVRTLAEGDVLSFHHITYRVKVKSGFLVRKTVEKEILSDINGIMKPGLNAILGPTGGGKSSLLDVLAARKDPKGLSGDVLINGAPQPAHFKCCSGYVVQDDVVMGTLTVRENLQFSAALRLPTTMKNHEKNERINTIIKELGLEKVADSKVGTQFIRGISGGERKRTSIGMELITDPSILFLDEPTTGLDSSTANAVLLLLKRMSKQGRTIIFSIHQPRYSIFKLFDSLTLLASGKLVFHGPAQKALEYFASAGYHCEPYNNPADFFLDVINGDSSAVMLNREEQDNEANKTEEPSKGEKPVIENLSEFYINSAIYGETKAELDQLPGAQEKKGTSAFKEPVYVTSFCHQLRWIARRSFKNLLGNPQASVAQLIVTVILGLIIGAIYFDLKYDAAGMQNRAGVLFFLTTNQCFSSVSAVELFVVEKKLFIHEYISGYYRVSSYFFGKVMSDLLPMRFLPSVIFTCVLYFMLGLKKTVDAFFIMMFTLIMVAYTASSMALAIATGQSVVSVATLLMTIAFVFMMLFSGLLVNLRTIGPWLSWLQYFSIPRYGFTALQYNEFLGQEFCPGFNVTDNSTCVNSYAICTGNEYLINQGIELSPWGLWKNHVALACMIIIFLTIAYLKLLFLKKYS
Experimental: (§1) For in vitro assays, the polarized cell line Madin-Darby canine kidney (MDCK-II) and their murine Abcg2 and human ABCG2 transduced subclones, which were previously generated and provided by A.H. Schinkel from the Netherlands Cancer Institute (Amsterdam, The Netherlands), were used.
(§2) Transcellular transport assays were performed as previously described, with minor modifications (Figure S1). Transduced MDCK-II cells were seeded as a monolayer on microporous membrane filters (3.0 μm pore size, 24 mm diameter; Transwell® 3414; Costar, Corning, NY, USA) at a density of 1.0 x 10^6 cells/well. Cells were grown for three days with daily medium replacement. […]
(§3) (to verify that the potential transport was specifically due to ABCG2). […] All samples were stored at −20 °C until being analyzed by high-performance liquid chromatography (HPLC), as described below.
(§4) The relative efflux transport ratio was calculated as the basal to apical directed transport percentage divided by the apical to basal directed transport percentage at 4 h. […]
(§5) The chromatographic system used for sample analysis consisted of a Waters 2695 separation module and a Waters 2998 UV photodiode array detector. […] In both cases, the flow rate was set to 1.00 mL/min and UV absorbance was measured at 260.3 nm.

[2] = Transepithelial transport assay in parental MDCK-II cells; type: in vitro ADME, canine; conditions: dog, read-out: Relative efflux transport ratio (BA/AB) at 4 h
Experimental: as §1, §2, §3
Lumichrome appearance in the opposite compartment is presented as the fraction of total compound added at the beginning of the experiment and expressed as percentage. The relative efflux transport ratio was calculated as the basal to apical directed transport percentage divided by the apical to basal directed transport percentage at 4 h.

[3] = Plasma levels in wild-type and Abcg2-/- male mice after intraperitoneal administration; conditions: 10 mg/kg intraperitoneal
From the text: (§6) Animals were handled according to institutional and ARRIVE guidelines complying with European legislation (2010/63/EU). Experimental procedures were approved by the Animal Care and Use Committee of the University of León and the Junta de Castilla y León (ULE_010_2021). Abcg2^-/- and wild-type mice were used, all of >99% FVB/N genetic background, generated and kindly supplied by A. H. Schinkel (The Netherlands Cancer Institute).
(§7) All animals, which were aged from 9 to 14 weeks and weighed 30 g, were kept in a temperature-controlled environment with a cycle of 12 h of light and 12 h of darkness and received a standard diet and water ad libitum.
Blood samples were collected at different time points (5, 10, 20, 30, 45, 60, 90 and 120 min) by cardiac puncture under anesthesia with isoflurane. Organs were harvested at the 60 min time point. All animals were euthanized by cervical dislocation at the end of the experimental procedure. Heparinized blood samples were centrifuged immediately at 3000× g for 15 min. Plasma and organs were stored at −20 °C until HPLC analysis. Three to ten animals were used for each time point. […]
as §5

[4] = 10 mg/kg intraperitoneal, 30 min
From the text: as §6, §7
Pups of approximately 10 days old were separated from their mothers four hours before the onset of the experiment. […] Milk secretion was stimulated by oxytocin (200 μL of a 1 UI/mL solution), subcutaneously injected to lactating mice 10 min before sample collection. […] Animals were euthanized by cervical dislocation at the end of the experiment. Four to five animals were used for each group.
Heparinized blood samples were centrifuged immediately at 3000× g for 15 min to obtain plasma. Milk and plasma were also stored at −20 °C until HPLC analysis.
(§8) Tissue samples were homogenized with a mixture of 50% water:50% methanol with 0.5% HCl; 1 mL of solution per 0.1 g of organ was used. To each 100 µL of plasma, milk or tissue homogenate, 10 µL of an albendazole-2-aminosulfone solution (100 µg/mL) was added as an internal standard and 400 µL of acetonitrile was also added in order to precipitate proteins. After 10 min of being horizontally vortexed, samples were centrifuged at 10,500× g for 10 min at 4 °C. Supernatants were evaporated to dryness at 40 °C under a stream of nitrogen. Samples were reconstituted in 100 µL of cold methanol and injected into the HPLC system. However, samples for in vitro assays were directly injected into the HPLC system.
The chromatographic system used for sample analysis consisted of a Waters 2695 separation module and a Waters 2998 UV photodiode array detector. Separation of samples was performed on an analytical reversed-phase column (5 µm particle size, 250 × 4.6 mm, EVO C18 100 Å, Phenomenex®, Torrance, CA, USA). The mobile phase used for in vitro samples was trifluoroacetic acid 0.04%:methanol (40:60), whereas for in vivo samples, it was ammonium acetate 25 mM (pH 5):acetonitrile (85:15). In both cases, the flow rate was set to 1.00 mL/min and UV absorbance was measured at 260.3 nm.

[5] = target: ABCG2 (BCRP) (Homo sapiens, UniProt Q9UNQ0); test: Transepithelial transport assay in MDCK-II cells transduced with human ABCG2; type: in vitro ADME; conditions: read-out: Relative efflux transport ratio (BA/AB) at 4 h
Experimental: as §1, §2, §3, §4, §5

[6] = Tissue distribution in wild-type and Abcg2-/- male mice; conditions: 10 mg/kg intraperitoneal, 60 min
From the text: as §6, §7
Blood samples were collected at different time points (5, 10, 20, 30, 45, 60, 90 and 120 min) by cardiac puncture under anesthesia with isoflurane. Organs were harvested at the 60 min time point. All animals were euthanized by cervical dislocation at the end of the experimental procedure. Heparinized blood samples were centrifuged immediately at 3000× g for 15 min. Plasma and organs were stored at −20 °C until HPLC analysis. Three to ten animals were used for each time point.
as §8, §5

efflux ratio at 4 h, 10 µM [1]: 13.8 ± 3.25 | efflux ratio at 4 h, 10 µM ([1]; with Ko143 1 µM): 1.03 ± 0.04 | efflux ratio at 4 h, 10 µM [2]: 0.85 ± 0.13 | efflux ratio at 4 h, 10 µM ([2]; with Ko143 1 µM): 0.95 ± 0.03 | Plasma AUC 20–120 min, Abcg2-/- versus wild-type ([3]; 10 mg/kg): ~2 fold and 1.8 fold | Plasma levels, Abcg2-/- versus wild-type ([3]; 60 min): 2.1 fold | Milk-to-plasma ratio ([4]; Abcg2-/- lactating female mice): 1.51 ± 0.35 µg/mL | Accumulation in milk, wild-type versus Abcg2-/- ([4]; lactating female mice): 4.1 fold | Milk-to-plasma ratio, wild-type versus Abcg2-/- ([4]; lactating female mice): ~3.7 fold | Milk-to-plasma ratio ([4]; wild-type lactating female mice): 5.54 ± 1.84 µg/mL | efflux ratio at 4 h, 10 µM [5]: 2.57 ± 0.25 | efflux ratio at 4 h, 10 µM ([5]; with Ko143 1 µM): 1.08 ± 0.08 | Accumulation in liver, Abcg2-/- versus wild-type [6]: 2.3 fold | Accumulation in testis, Abcg2-/- versus wild-type [6]: 2.3 fold | Concentration in small intestine content, wild-type versus Abcg2-/- [6]: 2.7 fold
Compound: Cc1cc2nc3[nH]c(=O)[nH]c(=O)c3nc2cc1C [lumichrome]
